Measurements: PubChem BioAssay (NCATS)
Only a part is listed here, and it is no random draw. Records with an inconclusive call do not appear. The source made the active and inactive calls. The call rests on the fitted dose curve; in most records, active means well fitted curve in the direction sought with a large enough effect; inconclusive means small, poorly fitted or top-dose-only effect, or another doubt; inactive means no such curve, though single readings can be large; an effect the other way counts as inactive or inconclusive.

Protein sequences, listed by entry. Tags and fused reporters are not part of them.
UniProt P08684, whole entry, looked up: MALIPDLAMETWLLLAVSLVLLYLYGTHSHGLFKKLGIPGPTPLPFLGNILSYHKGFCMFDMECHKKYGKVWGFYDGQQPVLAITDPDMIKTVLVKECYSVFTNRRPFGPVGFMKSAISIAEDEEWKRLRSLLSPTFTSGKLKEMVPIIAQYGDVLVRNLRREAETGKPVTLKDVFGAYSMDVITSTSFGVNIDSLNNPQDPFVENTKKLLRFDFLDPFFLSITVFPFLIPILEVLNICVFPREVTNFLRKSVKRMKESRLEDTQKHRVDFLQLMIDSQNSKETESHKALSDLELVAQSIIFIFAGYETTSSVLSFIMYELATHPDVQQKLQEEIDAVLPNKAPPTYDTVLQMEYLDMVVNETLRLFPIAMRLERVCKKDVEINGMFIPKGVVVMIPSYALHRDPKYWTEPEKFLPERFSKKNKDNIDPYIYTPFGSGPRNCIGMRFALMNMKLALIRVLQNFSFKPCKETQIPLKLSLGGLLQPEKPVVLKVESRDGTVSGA

Experiments:
[1] = Cellular Toxicity (caspase-3) Hek293 (AID 664); settings: HEK293 caspase-3 activation, DMSO = 0%, 100 µM tamoxifen = 100%; at 92.2 µM (top of the series);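 further: cells exposed to compound for 16 h at 37 °C before readout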
In short: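 Apoptosis readout: Caspase-Glo 3/7 signal in human HEK293 cells following 16-hour compound incubation. Responses scaled between DMSO baseline and 100 uM tamoxifen.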

[2] = Cellular Toxicity (caspase-3) N2a (AID 665); settings: N2a cells, luminescence, normalized: DMSO 0%, 10 µM staurosporine 100%; at 92.2 µM (top of the series);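 further: compound exposure lasted 16 h at 37 °C before readout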
In short: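 Concentration-response qHTS: compound-induced caspase-3/7 luminescence in N2a cells (16 h, 37 °C), relative to DMSO and 10 uM staurosporine controls; AC50 obtained using the standard Hill equation.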

[3] = Cellular Toxicity (caspase-3) NIH 3T3 (AID 666); settings: NIH 3T3 caspase-3 activation, apoptosis/toxicity, 0% DMSO, 100% is 100 µM tamoxifen; at 92.2 µM (top of the series);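 further: caspase signal read after 16 h compound exposure; 0% = DMSO basal and 100% = 100 µM tamoxifen stimulation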
In short: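 Activity: caspase-3/7 induction, NIH 3T3 cells, 16 hr treatment at 37°C, luminescent Caspase-Glo detection; AC50 via Hill equation.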

[4] = Cellular Toxicity (caspase-3) Renal Proximal Tubule (AID 667); settings: renal proximal tubule cells, primary cells freshly taken from rat, solvent-only wells 0%, staurosporine 100%; at 91.7 µM (top of the series);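 further: cells exposed to compound for 16 hours at 37 °C before detection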
In short: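 Caspase 3/7 activation measured by luminescent aminoluciferin release in primary rat proximal tubule cells after 16 hr compound exposure at 37 °C. AC50 from Hill-fitted concentration-response, scaled between DMSO and 10 uM staurosporine.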

[5] = target: Cytochrome P450 3A4 (Homo sapiens) (UniProt P08684); assay: qHTS Assay for Inhibitors and Substrates of Cytochrome P450 3A4 (AID 884); settings: recombinant CYP3A4, Luciferin-PPXE luminescence; at 57.1 µM (top of the series); further: on the % scale 0 is the no-effect control and ±100 the full control effect; nearly all actives have a fitted effect of over 50% in size
[6] = MultiTox-Fluor Cytotoxicity Assay - LYMP1-001 - Dead Cells (AID 946); settings: LYMP1-001 lymphoblastoid cells, dead-cell protease fluorescence; at 92.2 µM (top of the series);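 further: 0% = DMSO and 100% = tetraoctylammonium bromide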
In short: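 In this qHTS, 15 uM tetraoctylammonium bromide defined 100% and DMSO defined basal activity. Lymphoblastoid cells (LYMP1-001, 2500 per well) received compound for 16 hr at 37 C before a fluorogenic dead-cell substrate readout at 485/520 nm.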

[7] = MultiTox-Fluor Cytotoxicity Assay - LYMP1-001 - Live Cells (AID 947); settings: LYMP1-001 lymphoblastoid cells, live-cell protease fluorescence viability; at 92.2 µM (top of the series);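 further: 0% = DMSO only and full inhibition = tetraoctylammonium bromide control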
[8] = Cell Viability - LYMP1-002 - Assay at 16 hr (AID 948); settings: LYMP1-002 lymphoblastoid cell viability; at 92.2 µM (top of the series);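 further: 0% = DMSO alone and full effect = 92 µM tetraoctylammonium bromide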
In short: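 ATP luminescence (CellTiter-Glo) was measured after 16 hr compound exposure at 37 C of 2500 lymphoblastoid LYMP1-002 cells per well. Concentration-response curves were fitted with the Hill equation to give AC50.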

[9] = MultiTox-Fluor Cytotoxicity Assay - LYMP1-002 - Live Cells (AID 955); settings: LYMP1-002 lymphoblastoid live-cell protease fluorescence viability; at 46.1 µM (top of the series); further: on the % scale 0 is the no-effect control and ±100 the full control effect
In short: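 In this qHTS viability format, lymphoblastoid cells (LYMP1-002, human) received compound for 16 hr at 37 C. Fluorogenic GF-AFC cleavage by viable cells was detected at 405/510 nm after 1 h at room temperature.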

[10] = MultiTox-Fluor Cytotoxicity Assay - LYMP1-002 - Dead Cells (AID 960); settings: LYMP1-002 lymphoblastoid cells, dead-cell protease fluorescence; at 46.1 µM (top of the series);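 further: 0% = DMSO and 100% = tetraoctylammonium bromide; nearly all actives have a fitted effect of over 60% in size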
In short: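 Concentration-dependent increases in membrane-leaked protease activity are quantified in LYMP1-002 cells after 16 hr treatment; values are normalized against DMSO and tetraoctylammonium bromide (15 uM) controls and AC50 derived by Hill modeling.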

[11] = MultiTox-Fluor Cytotoxicity Assay - LYMP1-003 - Dead Cells (AID 961); settings: LYMP1-003 lymphoblastoid cells, dead-cell protease fluorescence; at 92.2 µM (top of the series);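 further: 0% = DMSO and 100% = tetraoctylammonium bromide; nearly all actives have a fitted effect of over 70% in size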
In short: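 Acute toxicity is scored as increased dead-cell protease activity in human lymphoblastoid LYMP1-003 cells after 16 h compound exposure in complete culture medium. Activity is normalized to DMSO basal and 15 uM tetraoctylammonium bromide as full response.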

[12] = MultiTox-Fluor Cytotoxicity Assay - LYMP1-003 - Live Cells (AID 962); settings: LYMP1-003 lymphoblastoid cells, MultiTox-Fluor live-cell protease fluorescence; at 92.2 µM (top of the series);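 further: cells exposed to compound for 16 hours at 37 °C; 0% = DMSO only and full loss = 92 µM tetraoctylammonium bromide; cytotoxic hits lower the live-cell protease signal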
In short: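 Human lymphoblastoid line LYMP1-003 in complete culture medium, treated 16 hr with titrated compounds. Viable cells quantified via cell-permeant GF-AFC substrate fluorescence; AC50 derived by Hill fitting.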

[13] = Cell Viability - LYMP1-003 - Assay at 24 hr (AID 963); settings: LYMP1-003 lymphoblastoid cell viability; at 92.2 µM (top of the series);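 further: plate controls were DMSO only for no effect and tetraoctylammonium bromide positive control for full effect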
In short: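 The lymphoblastoid line was treated with titrated compounds for 24 hours, and viable cell number estimated from luciferase-based ATP luminescence.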

[14] = Cell Viability - LYMP2-005 (AID 967);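 further: plate controls were DMSO only for no effect and 92 µM tetraoctylammonium bromide control for full effect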
In short: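 LYMP2-005 human lymphoblastoid cells (2500/well) were treated with compounds for 24 h at 37 C. Intracellular ATP was then measured by CellTiter-Glo luminescence after 30 min at room temperature. AC50 values came from Hill-equation fits of qHTS concentration-response data.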

[15] = Cell Viability - LYMP2-023 (AID 975); settings: LYMP2-023 lymphoblastoid cell viability; at 92.2 µM (top of the series);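 further: cellular ATP measured by luciferase luminescence as viability proxy; cells exposed to compound for 24 hours at 37 °C; plate controls were DMSO only for no effect and 92 µM tetraoctylammonium bromide control for full effect; nearly all actives have a fitted effect of over 55% in size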
In short: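 In this qHTS, ATP-based luciferase luminescence (CellTiter-Glo) is quantified in human lymphoblastoid cells after 24 hr compound treatment at 37 C; tetraoctylammonium bromide serves as positive control. Concentration-response curves are Hill-fitted to give AC50.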

Cc1cc([N+](=O)[O-])cc([N+](=O)[O-])c1O
inactive: caspase-3 activation [1] -0.149% | caspase-3 activation [2] 4.16% | caspase-3 activation [3] -17% | caspase-3 activation [4] -2% | activity change, negative = inhibition [5] -6.09% | cytotoxicity (dead cells) [6] -1.32% | activity change, negative = cytotoxicity [7] -28.7% | activity change, negative = cytotoxicity [8] -8.2% | viability change, negative = cytotoxic [9] -18.3% | cytotoxicity (dead cells) [10] 20.7% | cytotoxicity (dead cells) [11] 12.6% | activity change, negative = fewer live cells [12] -18.9% | viability change, negative = cytotoxic [13] -13.2% | Potency [14] | activity change, negative = cytotoxicity [15] -1.1%
